# Read-outs that look alike come from different tables or passages of the source.
# Experiments:
# [1] = system: NIH:OVCAR3 human ovarian cancer cells
# [2] = system: HK2 human kidney cortex/proximal tubule cells; conditions: for Cell Viability Avg: FIG. 7H
# [3] = system: PC-3 human prostate cancer cells; conditions: FIG. 9B, PC3, 2.5 hr, 10 μM
# [4] = for Mol. % of DMA 8 / Mol. % of DMI 7 formed / Mol. % of Decomposition Products / Mol. % of Dox Released: 37° C.
substance,measurement,setting,value
Doxorubicin Disubstituted Maleamic Acid Glutathione Conjugate [Dox-DMA-GSH 8],Cell Viability Avg,"[1]; FIG. 7C, OVCAR3, 2 hr, 4 μM, pH 6.3-6.4",64%
same,Cell Viability Avg,"[1]; FIG. 7C, OVCAR3, 2 hr, 4 μM, pH 7.4-7.6",57%
same,Cell Viability Avg,"[1]; FIG. 7C, OVCAR3, 2 hr, 6 μM, pH 6.3-6.4",18%
same,Cell Viability Avg,"[1]; FIG. 7C, OVCAR3, 2 hr, 6 μM, pH 7.4-7.6",38%
same,Cell Viability Avg,"[1]; FIG. 7G, OVCAR3, 2 hr, 6 μM, pH 6.2-6.4",15%
same,Cell Viability Avg,"[1]; FIG. 7G, OVCAR3, 2 hr, 6 μM, pH 6.4-6.5",16%
same,Cell Viability Avg,"[1]; FIG. 7G, OVCAR3, 2 hr, 6 μM, pH 6.6-6.7",34%
same,Cell Viability Avg,"[1]; FIG. 7G, OVCAR3, 2 hr, 6 μM, pH 6.8-6.9",46%
same,Cell Viability Avg,"[1]; FIG. 7G, OVCAR3, 2 hr, 6 μM, pH 7.1-7.3",55%
same,Cell Viability Avg,"[1]; FIG. 7G, OVCAR3, 2 hr, 6 μM, pH 7.2-7.5",52%
same,Cell Viability Avg,"[1]; FIG. 10A, OVCAR3, 6 hr, 2 μM, pH 6.5-6.7",76%
same,Cell Viability Avg,"[1]; FIG. 10A, OVCAR3, 6 hr, 2 μM, pH 7.3-7.6",79%
same,Cell Viability Avg,"[1]; FIG. 10A, OVCAR3, 6 hr, 4 μM, pH 6.5-6.7",32%
same,Cell Viability Avg,"[1]; FIG. 10A, OVCAR3, 6 hr, 4 μM, pH 7.3-7.6",49%
same,less cytotoxic than the free drug (3 μM),"[1]; OVCAR3, 2-3 h, 6-8 μM prodrug, pHe 7.5-7.6",2-4 ×
same,Cell Viability Avg,"[2]; HK2, pHe 7.4, 3 nM",103%
same,Cell Viability Avg,"[2]; HK2, pHe 7.4, 10 nM",105%
same,Cell Viability Avg,"[2]; HK2, pHe 7.4, 30 nM",98%
same,Cell Viability Avg,"[2]; HK2, pHe 7.4, 100 nM",107%
same,Cell Viability Avg,"[2]; HK2, pHe 7.4, 300 nM",96%
same,Cell Viability Avg,"[2]; HK2, pHe 7.4, 1000 nM",106%
same,Cell Viability Avg,"[2]; HK2, pHe 7.4, 3000 nM",93%
same,Cell Viability Avg,"[2]; HK2, pHe 7.4, 10000 nM",78%
same,Cell Viability Avg,"[2]; HK2, pHe 7.4, 30000 nM",71%
same,"less toxic than free Dox, fold in concentration","[2]; HK2, pHe 7.4 (FIG. 7H)",30 fold
same,Cell Viability Avg,[3]; pH 6.3-6.4,56%
same,Cell Viability Avg,[3]; pH 7.5-7.6,70%
same,pH 6.5/7.4 ratio of Dox released,"[4]; 37 C, 45% FBS, after 6 h, listed as prodrug 8",6
same,Mol. % of DMA 8,"[4]; pH 6.5, 0 hr, 45% FBS",90 Mol. %
same,Mol. % of DMI 7 formed,"[4]; pH 6.5, 0 hr, 45% FBS",8 Mol. %
same,Mol. % of Decomposition Products,"[4]; pH 6.5, 0 hr, 45% FBS",2 Mol. %
same,Mol. % of Dox Released,"[4]; pH 6.5, 0 hr, 45% FBS",0 Mol. %
same,Mol. % of DMA 8,"[4]; pH 6.5, 1 hr, 45% FBS",61 Mol. %
same,Mol. % of DMI 7 formed,"[4]; pH 6.5, 1 hr, 45% FBS",10 Mol. %
same,Mol. % of Decomposition Products,"[4]; pH 6.5, 1 hr, 45% FBS",2 Mol. %
same,Mol. % of Dox Released,"[4]; pH 6.5, 1 hr, 45% FBS",27 Mol. %
same,Mol. % of DMA 8,"[4]; pH 6.5, 2 hr, 45% FBS",47 Mol. %
same,Mol. % of DMI 7 formed,"[4]; pH 6.5, 2 hr, 45% FBS",13 Mol. %
same,Mol. % of Decomposition Products,"[4]; pH 6.5, 2 hr, 45% FBS",3 Mol. %
same,Mol. % of Dox Released,"[4]; pH 6.5, 2 hr, 45% FBS",37 Mol. %
same,Mol. % of DMA 8,"[4]; pH 6.5, 3 hr, 45% FBS",38 Mol. %
same,Mol. % of DMI 7 formed,"[4]; pH 6.5, 3 hr, 45% FBS",13 Mol. %
same,Mol. % of Decomposition Products,"[4]; pH 6.5, 3 hr, 45% FBS",4 Mol. %
same,Mol. % of Dox Released,"[4]; pH 6.5, 3 hr, 45% FBS",45 Mol. %
same,Mol. % of DMA 8,"[4]; pH 6.5, 5 hr, 45% FBS",11 Mol. %
same,Mol. % of DMI 7 formed,"[4]; pH 6.5, 5 hr, 45% FBS",13 Mol. %
same,Mol. % of Decomposition Products,"[4]; pH 6.5, 5 hr, 45% FBS",19 Mol. %
same,Mol. % of Dox Released,"[4]; pH 6.5, 5 hr, 45% FBS",57 Mol. %
same,Mol. % of DMA 8,"[4]; pH 6.5, 6 hr, 45% FBS",8 Mol. %
same,Mol. % of DMI 7 formed,"[4]; pH 6.5, 6 hr, 45% FBS",12 Mol. %
same,Mol. % of Decomposition Products,"[4]; pH 6.5, 6 hr, 45% FBS",21 Mol. %
same,Mol. % of Dox Released,"[4]; pH 6.5, 6 hr, 45% FBS",59 Mol. %
same,Mol. % of DMA 8,"[4]; pH 6.5, 7 hr, 45% FBS",6 Mol. %
same,Mol. % of DMI 7 formed,"[4]; pH 6.5, 7 hr, 45% FBS",11 Mol. %
same,Mol. % of Decomposition Products,"[4]; pH 6.5, 7 hr, 45% FBS",22 Mol. %
same,Mol. % of Dox Released,"[4]; pH 6.5, 7 hr, 45% FBS",61 Mol. %
same,Mol. % of DMA 8,"[4]; pH 6.5, 8.5 hr, 45% FBS",5 Mol. %
same,Mol. % of DMI 7 formed,"[4]; pH 6.5, 8.5 hr, 45% FBS",10 Mol. %
same,Mol. % of Decomposition Products,"[4]; pH 6.5, 8.5 hr, 45% FBS",23 Mol. %
same,Mol. % of Dox Released,"[4]; pH 6.5, 8.5 hr, 45% FBS",62 Mol. %
same,Mol. % of DMA 8,"[4]; pH 6.5, 12 hr, 45% FBS",4 Mol. %
same,Mol. % of DMI 7 formed,"[4]; pH 6.5, 12 hr, 45% FBS",10 Mol. %
same,Mol. % of Decomposition Products,"[4]; pH 6.5, 12 hr, 45% FBS",23 Mol. %
same,Mol. % of Dox Released,"[4]; pH 6.5, 12 hr, 45% FBS",63 Mol. %
same,Mol. % of DMA 8,"[4]; pH 6.5, 24 hr, 45% FBS",3 Mol. %
same,Mol. % of DMI 7 formed,"[4]; pH 6.5, 24 hr, 45% FBS",3 Mol. %
same,Mol. % of Decomposition Products,"[4]; pH 6.5, 24 hr, 45% FBS",29 Mol. %
same,Mol. % of Dox Released,"[4]; pH 6.5, 24 hr, 45% FBS",65 Mol. %
same,Mol. % of DMA 8,"[4]; pH 6.5, 28.5 hr, 45% FBS",2 Mol. %
same,Mol. % of DMI 7 formed,"[4]; pH 6.5, 28.5 hr, 45% FBS",2 Mol. %
same,Mol. % of Decomposition Products,"[4]; pH 6.5, 28.5 hr, 45% FBS",37 Mol. %
same,Mol. % of Dox Released,"[4]; pH 6.5, 28.5 hr, 45% FBS",59 Mol. %
same,Mol. % of DMA 8,"[4]; pH 6.5, 32 hr, 45% FBS",2 Mol. %
same,Mol. % of DMI 7 formed,"[4]; pH 6.5, 32 hr, 45% FBS",2 Mol. %
same,Mol. % of Decomposition Products,"[4]; pH 6.5, 32 hr, 45% FBS",37 Mol. %
same,Mol. % of Dox Released,"[4]; pH 6.5, 32 hr, 45% FBS",59 Mol. %
same,Mol. % of DMA 8,"[4]; pH 6.5, 48 hr, 45% FBS",0 Mol. %
same,Mol. % of DMI 7 formed,"[4]; pH 6.5, 48 hr, 45% FBS",2 Mol. %
same,Mol. % of Decomposition Products,"[4]; pH 6.5, 48 hr, 45% FBS",44 Mol. %
same,Mol. % of Dox Released,"[4]; pH 6.5, 48 hr, 45% FBS",54 Mol. %
same,Mol. % of DMA 8,"[4]; pH 7.4, 0 hr, 45% FBS",86 Mol. %
same,Mol. % of DMI 7 formed,"[4]; pH 7.4, 0 hr, 45% FBS",5 Mol. %
same,Mol. % of Decomposition Products,"[4]; pH 7.4, 0 hr, 45% FBS",9 Mol. %
same,Mol. % of Dox Released,"[4]; pH 7.4, 0 hr, 45% FBS",0 Mol. %
same,serum-induced decomposition of DMA 8,"[4]; pH 7.4, 37 C, with FBS",~45%
same,Mol. % of DMA 8,"[4]; pH 7.4, 1 hr, 45% FBS",81 Mol. %
same,Mol. % of DMI 7 formed,"[4]; pH 7.4, 1 hr, 45% FBS",10 Mol. %
same,Mol. % of Decomposition Products,"[4]; pH 7.4, 1 hr, 45% FBS",9 Mol. %
same,Mol. % of Dox Released,"[4]; pH 7.4, 1 hr, 45% FBS",0 Mol. %
same,Mol. % of DMI 7 formed,"[4]; pH 7.4, 4 hr, 45% FBS",15 Mol. %
same,Mol. % of Decomposition Products,"[4]; pH 7.4, 4 hr, 45% FBS",29 Mol. %
same,Mol. % of Dox Released,"[4]; pH 7.4, 4 hr, 45% FBS",11 Mol. %
same,Mol. % of DMA 8,"[4]; pH 7.4, 8 hr, 45% FBS",22 Mol. %
same,Mol. % of DMI 7 formed,"[4]; pH 7.4, 8 hr, 45% FBS",20 Mol. %
same,Mol. % of Decomposition Products,"[4]; pH 7.4, 8 hr, 45% FBS",47 Mol. %
same,Mol. % of Dox Released,"[4]; pH 7.4, 8 hr, 45% FBS",11 Mol. %
same,Mol. % of DMA 8,"[4]; pH 7.4, 24 hr, 45% FBS",15 Mol. %
same,Mol. % of DMI 7 formed,"[4]; pH 7.4, 24 hr, 45% FBS",22 Mol. %
same,Mol. % of Decomposition Products,"[4]; pH 7.4, 24 hr, 45% FBS",50 Mol. %
same,Mol. % of Dox Released,"[4]; pH 7.4, 24 hr, 45% FBS",13 Mol. %
same,Mol. % of DMA 8,"[4]; pH 7.4, 32 hr, 45% FBS",3 Mol. %
same,Mol. % of DMI 7 formed,"[4]; pH 7.4, 32 hr, 45% FBS",21 Mol. %
same,Mol. % of Decomposition Products,"[4]; pH 7.4, 32 hr, 45% FBS",65 Mol. %
same,Mol. % of Dox Released,"[4]; pH 7.4, 32 hr, 45% FBS",11 Mol. %
same,Mol. % of DMA 8,"[4]; pH 7.4, 45 hr, 45% FBS",0 Mol. %
same,Mol. % of DMI 7 formed,"[4]; pH 7.4, 45 hr, 45% FBS",6 Mol. %
same,Mol. % of Decomposition Products,"[4]; pH 7.4, 45 hr, 45% FBS",84 Mol. %
same,Mol. % of Dox Released,"[4]; pH 7.4, 45 hr, 45% FBS",10 Mol. %

# Source: patent publication US12285437B2 (The Research Foundation for The State University of new York, priority 2019, dated 2025)
